Laboratory results as given in ChEMBL document CHEMBL1134687, “Synthesis and structure-activity relationships of naphthamides as dopamine D3 receptor ligands” (J Med Chem, 2001).

Protein sequences, listed by entry. Tags and fused reporters are not part of them.
UniProt P61169, whole entry: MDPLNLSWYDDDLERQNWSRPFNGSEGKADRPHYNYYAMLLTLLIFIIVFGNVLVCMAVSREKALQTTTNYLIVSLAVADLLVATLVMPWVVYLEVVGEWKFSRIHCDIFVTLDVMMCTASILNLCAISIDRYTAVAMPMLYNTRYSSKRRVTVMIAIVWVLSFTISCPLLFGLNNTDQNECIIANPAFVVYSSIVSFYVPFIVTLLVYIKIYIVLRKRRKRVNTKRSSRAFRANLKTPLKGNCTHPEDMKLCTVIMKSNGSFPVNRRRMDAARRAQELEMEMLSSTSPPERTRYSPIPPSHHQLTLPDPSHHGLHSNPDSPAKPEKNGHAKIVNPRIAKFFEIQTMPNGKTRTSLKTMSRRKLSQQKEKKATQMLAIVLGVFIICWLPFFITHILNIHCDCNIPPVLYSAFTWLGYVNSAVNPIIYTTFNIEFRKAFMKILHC

Target: D(2) dopamine receptor (Rattus norvegicus, UniProt P61169)
Experiment: Binding affinity for dopamine receptor D2 long expressed in Sf9 cells using [125I]IABN radioligand.

Ki [nM]	SMILES
80	COc1c(C(=O)NC[C@@H]2CCCN2C2CCCCCC2)cc(Br)c2ccccc12
63	COc1c(C(=O)NC[C@H]2CCCN2C2CCCCCC2)cc(Br)c2ccccc12
